12-LOX inh: inhibitors of human 12S-lipoxygenase ALOX12. P18054. purified 12hLO, xylenol orange hydroperoxide absorbance. Potency, µM (titrated, usually from 108 µM), for inactives: top-dose activity change, negative = inhibition, most hits filed as inhibitors. actives 1.1% (n = 580,000); further: potency means the concentration at half of the fitted maximal effect; on the % scale 0 is the no-effect control and ±100 the full control effect
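Purified human 12hLO (150 nM final) in 25 mM Hepes, 0.01% Triton X-100, pH 7.0 was preincubated 15 min at room temperature with compound. Then 40 uM arachidonic acid was added, 30 min. Hydroperoxide was read by Fe-XO absorbance ratio 573/405 nm.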
PINK1 modulator: PINK1 expression modulation; actives 0.2% (n = 410,000); PINK1 immunofluorescence, high-content cytometry, 24 h; AID 624263; Potency, µM (series often up to 76.6 µM), inactives show at the top dose activation (PINK1 increase), hits mostly activators; active means well fitted activation curve with a large enough effect; inconclusive means small, poorly fitted or top-dose-only effect; cell line not stated here; further: potency means the concentration at half of the fitted maximal effect; % of control where 0% means no effect; nearly all actives have a fitted effect of over 65% in size
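Fluorescence from anti-PINK1 antibody, together with nuclear and cell stains, was scanned on a laser-scanning cytometer. Before staining, stable-line cells were incubated 24 hours with compounds at 5 concentrations; primary antibody 12 h at 10 degrees C.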
PTHR1 ag: activates the human parathyroid hormone receptor PTHR1 | Q03431 | HEK293 GP2 PTHR1 cells, GloSensor cAMP luminescence, 1 h | Potency, µM (titrated, usually from 115 µM), without a hit: at the top dose activation, actives largely listed as activators | actives 0.075% (n = 410,000); further: potency means the concentration at half of the fitted maximal effect; nearly all actives have a fitted effect of over 55% in size
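HEK-293-derived GP2 cells expressing PTHR1 and a GloSensor cAMP reporter, 3,000/well, plated overnight, given luciferin plus IBMX (each 0.5 mM as added) for 1 h at 37 °C, then compound for 1 h at 37 °C. Luminescence was read after 15 min at room temperature.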
Giardia kill: Giardia lamblia killing. Giardia lamblia trophozoite viability. activity change, % at 7.66 µM, hits read low. actives 0.15% (n = 340,000). AID 540267; in the data active means activity change below about -80%; inconclusive means between about -30% and that limit;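 further: parasites exposed to compound for two days anaerobically before the ATP read; on the % scale 0 is the no-effect control and ±100 the full control effect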
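ATP-content bioluminescence gauges trophozoite survival. Cells (100/well) receive compound and incubate anaerobically for 48 hrs at 37 deg C; detection reagent follows for 15-30 min at room temperature.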
ERG-DNA inh: inhibitors of human ERG Ets domain-DNA interaction. AID 624246. actives 0.028% (n = 370,000). fluorescence polarization, His-ERG Ets domain / labelled DNA. P11308. Potency, µM (top dose mostly 76.9 µM), inactives show at the top dose FP activity, negative = inhibition, actives largely listed as inhibitors; active means well fitted inhibition curve with a large enough effect in the polarisation, with a control signal flat; inconclusive means small, poorly fitted or top-dose-only effect, or effect the other way, or a change in a side signal; inactive means no such curve, though single readings can be large or run the other way; the % refers to the polarisation;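 further: polarization taken with two DNA probes labelled with fluorescein and Texas red; potency means the concentration at half of the fitted maximal effect; % of control where 0% means no effect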
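His-tagged ERG Ets domain (1 uM in the protein solution; 300mM KCl, 50mM Tris-HCl, 1mM EDTA, 1mM DTT, pH 7.5) received compound, then a probe mix of 5 nM fluorescein-DNA and 100nM Texas-615-DNA. Fluorescence polarization was read for both dyes.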
miR-21 reporter: miR-21 reporter, rising signal. HeLa miR-21 FLuc reporter, luciferase, 48 h. Potency, µM (highest dose often 38.3 µM), for the others: at the highest dose reporter change, positive = more light. 340,000 tested, under 10 active. AID 2288; active = well fitted rising curve with a large enough effect; inconclusive = small, poorly fitted or top-dose-only effect; inactive = no such curve, though single readings can be large or run the other way;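 further: % of control where 0% means no effect; miR-21 action dims this reporter so a rising signal means less miR-21 action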
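HeLa miR-21-FLuc reporter line, endogenous miR-21; 2000 cells/well in DMEM/10% FBS; compound titration up to ~40uM final, 48 h, 37 degree Celsius; luciferase detection reagent, 15 min lysis, CCD luminescence.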
An asterisk follows results filed as active; i = inactive; ? = inconclusive; nt = no result given; ! = repeats disagree. Most compounds without a hit are left out; they make up all but 1.3% or so of the library. Unless noted, the call rests on the fitted dose curve; in most records, active means well fitted curve in the direction sought with a large enough effect; inconclusive means small, poorly fitted or top-dose-only effect, or another doubt; inactive means no such curve, though single readings can be large; an effect the other way counts as inactive or inconclusive.

Keys – A = 12-LOX inh; B = PINK1 modulator; C = PTHR1 ag; D = Giardia kill; E = ERG-DNA inh; F = miR-21 reporter
1) Cc1cc(C(C)(C)C)cc(C)c1C[n+]1ccc2ccccc2c1
  A: -6.9%; B: 44.7µM*; C: -28.8%; D: 7.8; E: -6.0%; F: ?
2) Cc1ccc(C(=O)C[n+]2ccc3ccccc3c2)cc1
  A: -8.7%; B: -1.7%; C: i; D: 2.3; E: 24.9%; F: -39.6%
3) COc1ccc(NC(=O)C(=O)NCc2ccco2)c(OC)c1
  A: -3.2%; B: 6.5%; C: i; D: nt; E: -2.8%; F: -7.8%
4) Oc1[nH]c2ccc(Br)cc2c1N=NC(=S)N1CCOCC1
  A: 39.8µM*; B: 0.3%; C: ?; D: 36.7; E: 0.6%; F: ?
5) Cn1c2c(c(=O)[nH]c1=O)C(c1ccc(C(=O)O)cc1)C1=C(N2)c2ccccc2C1=O (stereo not given)
  A: 44.7µM*; B: nt; C: nt; D: nt; E: nt; F: nt
6) COc1cc(C#N)ccc1OCC(=O)NC(c1ccccc1)C1CC1 (stereo not given)
  A: 6.5%; B: nt; C: nt; D: nt; E: nt; F: nt
7) Cc1ncc2c(c1CNC(=O)/C=C/c1cccs1)CCN(C(=O)c1cc(C(C)C)on1)C2
  A: 6.2%; B: -0.8%; C: nt; D: nt; E: nt; F: nt
8) COC(=O)c1cc(C(=O)OCC(=O)NCc2cccs2)cc([N+](=O)[O-])c1
  A: 5.7%; B: -0.4%; C: i; D: 3.8; E: 4.5%; F: nt
9) COc1ccc(-c2csc(C(C)(O)c3cccc(OC)c3)n2)cc1 (stereo not given)
  A: ?; B: 4.7%; C: -28.3%; D: nt; E: nt; F: nt
10) COc1ccc(C(C)(O)c2nc(-c3cncnc3)cs2)cc1 (stereo not given)
  A: -11.1%; B: 0.8%; C: -17.9%; D: nt; E: nt; F: nt
11) CC(O)(c1cccc(F)c1)c1nc(-c2ccccc2)cs1 (stereo not given)
  A: 10µM*; B: 14.3%; C: -3.5%; D: nt; E: nt; F: nt
12) CC(O)(c1cccc(F)c1)c1nc(-c2ccncc2)cs1 (stereo not given)
  A: 5.5%; B: 0.2%; C: -26.3%; D: nt; E: nt; F: nt
13) COc1cccc(C(C)(O)c2nc(-c3cccs3)cs2)c1 (stereo not given)
  A: 4.47µM*; B: 8.7%; C: i; D: nt; E: nt; F: nt
14) COc1ccc(C(C)(O)c2nc(-c3ccoc3)cs2)cc1 (stereo not given)
  A: 28.2µM*; B: 4.2%; C: i; D: nt; E: nt; F: nt
15) CCCNC(=O)C12CCCC=C1N(CC)C(=O)CC2 (stereo not given)
  A: 54.3%; B: nt; C: nt; D: nt; E: nt; F: nt

3 structures from above, sorted by heavy-atom count, low to high.
Keys – A = 12-LOX inh; B = PINK1 modulator; C = PTHR1 ag; D = Giardia kill; E = ERG-DNA inh; F = miR-21 reporter
4) Oc1[nH]c2ccc(Br)cc2c1N=NC(=S)N1CCOCC1
  A: 39.8µM*; B: 0.3%; C: ?; D: 36.7; E: 0.6%; F: ?
9) COc1ccc(-c2csc(C(C)(O)c3cccc(OC)c3)n2)cc1 (stereo not given)
  A: ?; B: 4.7%; C: -28.3%; D: nt; E: nt; F: nt
5) Cn1c2c(c(=O)[nH]c1=O)C(c1ccc(C(=O)O)cc1)C1=C(N2)c2ccccc2C1=O (stereo not given)
  A: 44.7µM*; B: nt; C: nt; D: nt; E: nt; F: nt

Remaining list, next part
Keys – A = 12-LOX inh; B = PINK1 modulator; C = PTHR1 ag; D = Giardia kill; E = ERG-DNA inh; F = miR-21 reporter
16) O=C(COc1ccc(S(=O)(=O)N2CCOCC2)cc1Cl)NC1CC1
  A: ?; B: 1.8%; C: -32.7%; D: -15.6; E: -13.4%; F: 8.7%
17) C#Cc1cccc(C(=O)NCc2nc(-c3cccc(NC(=O)c4ccccn4)c3)oc2C)c1
  A: 5.8%; B: 1.2%; C: nt; D: nt; E: nt; F: nt
18) O=C(Nc1ccc2ncnc(N3CCCCC3)c2c1)c1cc(F)cc(F)c1
  A: 18.2%; B: nt; C: nt; D: nt; E: nt; F: nt
19) COc1ccccc1CNC(=O)C1CC2Cn3c(nc4cc5ccccc5cc43)C2N1C (stereo not given)
  A: -4.8%; B: -0.5%; C: -34.0%; D: -0.5; E: 1.7%; F: nt
20) COc1ccccc1CNC(=O)C1CC2Cn3c(nc4cc(Cl)c(Cl)cc43)C2N1C (stereo not given)
  A: 11.2µM*; B: 0.0%; C: -52.9%; D: 2.0; E: 13.3%; F: nt
21) CNC(=O)CSc1nc2ccccc2c(=O)n1-c1cc(OC)ccc1OC
  A: 8.2%; B: 2.3%; C: i; D: 17.9; E: 0.6%; F: 0.9%
22) COc1ccc(C(=O)NC(=S)N(Cc2ccccc2)Cc2ccccc2)cc1
  A: 35.5µM*; B: 0.8%; C: i; D: -0.7; E: 5.9%; F: -9.4%
23) C=CCN(CC=C)C(=S)NC(=O)c1ccc(OC)cc1
  A: -16.9%; B: 1.7%; C: i; D: -12.1; E: 14.1%; F: -15.6%
24) O=C(CN(Cc1ccccc1)S(=O)(=O)c1ccc(Br)cc1)N/N=C/c1ccccc1C(=O)O
  A: ?; B: 2.2%; C: 19.4%; D: -11.7; E: -20.2%; F: -9.1%
25) Cc1c(CCOC(=O)c2ccc(Cl)cc2Cl)sc[n+]1CC(=O)c1ccc(Br)cc1
  A: ?; B: -1.4%; C: -38.4%; D: -0.6; E: -6.4%; F: nt
26) Cc1c(CCOC(=O)C2C3CC4CC(C3)CC2C4)sc[n+]1CC(=O)c1ccc(Br)cc1 (stereo not given)
  A: 39.8µM*!; B: -2.9%; C: -16.7%; D: 15.6; E: -5.3%; F: 24.3%
27) CCN(CC)CC(=O)c1c(C)n(C)c2ccc(OC)cc12
  A: 7.94µM*; B: 0.9%; C: nt; D: nt; E: nt; F: nt
28) CCOCc1cnc(C)nc1NCC(=O)c1c(C)n(C)c2ccc(OC)cc12
  A: ?; B: 0.7%; C: i; D: -8.8; E: -5.4%; F: 6.6%

Screening data as filed in PubChem.
